Measurements: patent US20190209472A1, “FORMULATIONS FOR DERMAL DELIVERY OF POLYMER CONJUGATES OF INDOLOCARBAZOLE COMPOUNDS WITH REDUCED EXPOSURE” (Sienna Biopharmaceuticals, Inc., priority 2017, published 2019)
“Also recorded” adds a separate entry of the source. Read-outs that look alike come from different tables or passages of the source.

Format: physicochemical
Method: Twenty-one solvents were selected for the evaluation. Solubility was assessed visually.
Under dim light conditions a small amount of API (˜0.05 g) was weighed into type 1 clear glass vials. To each vial, approximately 10 g of the solvent was added. Samples were shaken manually for a few minutes and visually observed to check if the API had dissolved, as indicated by the clarity of the solution. In the event API dissolved, the procedure was repeated by adding more API up to a maximum of 10% w/w.

(9S, 10R, 12R)-10-(3′-mPEG2000-1′,3′-oxazolidine-2′,4′-dione)-2,3,9,10,11,12-hexahydro-9-methyl-1-oxo-9,12-epoxy-1H-diindolo[1,2,3-fg:3′,2′,1′-k,l]pyrrolo[3,4-i][1,6] benzodiazocine] [CT327]
Solubility of CT327 in single solvents, Comments (N-Methyl pyrrolidone): good solubility; also recorded: Excellent solubility | Solubility of CT327 in single solvents, Comments (Propylene carbonate): Excellent solubility
